These are literature values, as cited in patent US20030194514A1 (priority 2002, published 2003).

For this data set the following is noted: per Brit. 1,132,417; cited from earlier work.

As for beta-ionone, the “Effectiveness of the solvent in stabilizing propargyl bromide” value is recorded as “effective”.
